In the test the target is COX-1 (Homo sapiens, UniProt P23219). Description: COX-1 whole-blood enzymatic immunoassay. It counts as cell-based.

Amino acid sequences for entries named in this document (tags omitted). Residues count along the entry.
UniProt P23219, 24-599: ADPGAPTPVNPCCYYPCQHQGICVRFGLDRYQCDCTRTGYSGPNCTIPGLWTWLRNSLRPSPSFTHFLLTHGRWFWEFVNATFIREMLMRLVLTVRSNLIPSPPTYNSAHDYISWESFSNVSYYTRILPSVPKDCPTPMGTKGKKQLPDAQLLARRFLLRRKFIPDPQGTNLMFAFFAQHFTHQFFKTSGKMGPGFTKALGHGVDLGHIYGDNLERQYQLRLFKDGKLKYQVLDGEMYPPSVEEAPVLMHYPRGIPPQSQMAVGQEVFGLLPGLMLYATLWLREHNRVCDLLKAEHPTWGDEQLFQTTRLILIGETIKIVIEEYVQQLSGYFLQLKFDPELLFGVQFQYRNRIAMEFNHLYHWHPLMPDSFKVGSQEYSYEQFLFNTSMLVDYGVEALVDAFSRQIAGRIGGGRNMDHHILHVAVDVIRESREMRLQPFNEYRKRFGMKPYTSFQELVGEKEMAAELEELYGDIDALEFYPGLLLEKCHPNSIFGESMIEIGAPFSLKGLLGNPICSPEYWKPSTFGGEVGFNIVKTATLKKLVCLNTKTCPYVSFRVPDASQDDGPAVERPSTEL

Like-named read-outs stand apart in the source and are kept apart here.

`COc1ccc(-c2nc(OC)nn2-c2ccc(OC)cc2)cc1` [Inhibitor 5]: under “read-out: IC50 COX-1 Human, human whole blood, mean ± SD (n = 3)”, the 50% inhibitory concentration (IC50) turned out to be 5 ± 5.2 nM.
The molecule `COc1ccc(-c2nc(OCC(F)(F)F)nn2-c2ccc(OC)cc2)cc1` [Inhibitor 20, 1,5-Bis(4-methoxyphenyl)-3-(2,2,2-trifluoroethoxy)-1H-1,2,4-triazole] yielded an IC50 of 1 ± 0.2 nM.
